Results on one substance are retold here after publication PMC11413451, “The sperm-specific K^+ channel Slo3 is inhibited by albumin and steroids contained in reproductive fluids” (Frontiers in Cell and Developmental Biology, 2024).

In test [1] the target is T1, human Slo3 (Homo sapiens, UniProt A8MYU2).
T1 construct: expressed in transfected cells; host or cells: CHO cells, transient co-transfection with pcDNA3.1(+) vectors
T1 sequence (A8MYU2 1-1149): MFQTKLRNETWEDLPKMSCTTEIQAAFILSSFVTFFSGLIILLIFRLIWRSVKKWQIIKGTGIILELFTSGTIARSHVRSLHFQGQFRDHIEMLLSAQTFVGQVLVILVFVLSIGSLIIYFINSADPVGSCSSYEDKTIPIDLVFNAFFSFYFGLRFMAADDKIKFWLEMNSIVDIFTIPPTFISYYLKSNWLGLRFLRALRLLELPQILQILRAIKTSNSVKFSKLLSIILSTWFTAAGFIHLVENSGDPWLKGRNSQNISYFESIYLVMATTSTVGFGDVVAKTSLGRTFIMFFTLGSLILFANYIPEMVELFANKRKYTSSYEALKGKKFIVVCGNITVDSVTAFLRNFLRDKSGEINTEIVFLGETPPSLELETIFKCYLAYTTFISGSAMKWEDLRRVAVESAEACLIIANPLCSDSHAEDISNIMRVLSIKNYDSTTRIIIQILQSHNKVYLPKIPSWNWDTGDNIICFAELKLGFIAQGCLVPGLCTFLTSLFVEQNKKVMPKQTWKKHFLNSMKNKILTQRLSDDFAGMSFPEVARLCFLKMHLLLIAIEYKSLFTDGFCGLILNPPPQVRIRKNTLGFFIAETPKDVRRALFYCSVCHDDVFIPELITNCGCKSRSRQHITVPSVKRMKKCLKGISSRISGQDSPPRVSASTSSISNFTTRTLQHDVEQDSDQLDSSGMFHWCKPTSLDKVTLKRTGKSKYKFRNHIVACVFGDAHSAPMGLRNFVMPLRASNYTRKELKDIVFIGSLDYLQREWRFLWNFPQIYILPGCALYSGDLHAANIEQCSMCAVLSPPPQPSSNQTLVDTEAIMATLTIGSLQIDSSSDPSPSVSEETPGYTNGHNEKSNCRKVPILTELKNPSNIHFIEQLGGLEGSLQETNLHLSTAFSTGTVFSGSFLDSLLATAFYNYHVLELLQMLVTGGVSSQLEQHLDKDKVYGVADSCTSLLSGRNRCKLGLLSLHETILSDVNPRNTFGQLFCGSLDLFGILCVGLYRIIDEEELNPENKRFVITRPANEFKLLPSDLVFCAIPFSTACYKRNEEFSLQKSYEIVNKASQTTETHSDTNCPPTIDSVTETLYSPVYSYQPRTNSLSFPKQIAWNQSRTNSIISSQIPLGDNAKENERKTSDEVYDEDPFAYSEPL
T1 sequence (Q8N7C0 24-313 partner): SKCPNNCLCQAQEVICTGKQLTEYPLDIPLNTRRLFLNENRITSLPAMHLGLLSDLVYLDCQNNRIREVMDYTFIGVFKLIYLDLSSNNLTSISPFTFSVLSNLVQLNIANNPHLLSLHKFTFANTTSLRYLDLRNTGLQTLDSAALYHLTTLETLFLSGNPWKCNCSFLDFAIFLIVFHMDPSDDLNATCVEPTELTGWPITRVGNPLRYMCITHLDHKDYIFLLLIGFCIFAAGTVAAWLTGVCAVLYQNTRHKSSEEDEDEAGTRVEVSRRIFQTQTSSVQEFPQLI
As to the kind of experiment: Whole-cell patch-clamp of Slo3 currents in CHO cells co-expressing human Slo3 and LRRC52. Type of test: cell-based.

Test [2] relates to T2, native Slo3 in human sperm.
T2 construct: Slo3 currents recorded from human sperm at +100 mV before and after perfusion with albumin; endogenous in cells; host or cells: human swim-up sperm
As to the kind of experiment: Whole-cell patch-clamp of native Slo3 currents in human sperm. Type of test: cell-based. The settings on record: 300 µM albumin; n = 4; statistically not significant. As for the experimental part: Recordings from swim-up sperm ([Young et al., 2024]) in the whole-cell configuration were performed as described before (e.g., [Strünker et al., 2011]; [Brenker et al., 2014]) according to the protocols approved by the Ethics Committee of the Medical Association Westfalen-Lippe and the Medical Faculty Münster (2021-402-f-S) and the Declaration of Helsinki. Seals between pipette and sperm were formed at the cytoplasmic droplet or neck region in extracellular solution (HS) containing (in mM): 145 NaCl, 5 KCl, 1 MgSO4, 2 CaCl2, 5 glucose, and 20 HEPES, adjusted to pH 7.4 with NaOH. The pipette (10–15 MΩ) solution contained (in mM): 130 K-aspartate, 5 KCl, 50 HEPES, and 1 CaCl2, adjusted to pH 7.3 with KOH. Data were not corrected for liquid junction potentials.
Analysis was performed using Clampfit 10.7 (Molecular Devices) and OriginPro 2020 (OriginLab Corporation, Northampton, MA, United States). The inhibition was calculated based on the currents from the +50 mV pulse following the +100 mV step (voltage-step protocol Figure 1). We corrected for leak current in each measurement by subtracting the current at the +50 mV pulse immediately following a −100 mV step, i.e., before opening of Slo3 commenced. […] The predicted action of multiple components was calculated by multiplying the hill equations for each individual component. […]

Turning to “albumin: Human serum albumin, contained in follicular fluid in high micromolar concentrations”, the 50% inhibitory concentration (IC50) in test [1] (dose-response, Hill fit, mean ± SD, read-out: IC50 for inhibition of Slo3) was found to be 131 ± 20 µM. The “decrease of Slo3 currents in CHO cells” value in test [1] (high intracellular Ca^2+ (1 mM) and elevated pH (8.0), n = 6) is on record as 70 ± 5%. For the same substance, the “time until inhibition peaks” value in test [1] (repetitive-pulse protocol, CHO cells) lay within 10 to 20 s. Moreover, in test [2], the “decrease of Slo3 currents in human sperm” value is on record as 15 ± 30%.

The IC50 is the concentration needed to halve the response being measured.
